{"source": "PubChem BioAssay AID1347088", "about": "(National Center for Advancing Translational Sciences (NCATS), 2019)", "test": "qHTS for Inhibitors of the Functional Ribonucleoprotein Complex (vRNP) of Lymphocytic Choriomeningitis Arenaviruses (LCMV): Viability assay - Alamar blue signal for LCMV Confirmatory Screen", "conditions": "LCMV vRNP confirmatory screen cells; at 110 µM (top of the series)", "note": "The list shows a part of the results, in another mix than the full data. Inconclusive results are not listed. Calls of active or inactive are those of the source. Calls come from the whole dose curve."}
{"compound": "CCC(=O)N(c1ccccc1)C1(COC)CCN(CCc2cccs2)CC1", "values": [{"measurement": "viability change, negative = toxic", "value": "inactive: -51.5%"}]}
